In patent publication US7528274B2, “Acylthiols and component thiol compositions as anti-HIV and anti-retroviral agents” (The United States of America as represented by the …, priority 2001, dated 2009):

Experiments:
Assay type in all cases: cell-based
[1] = tested on: HIV-1 (RoJo); details: HIV-1 (RoJo/PBMCs)
Text: (§1) One exemplary means to determine antiviral activity is with CEM-SS cells and virus (e.g., HIV-1RF) (MOI=0.01) using the XTT {2,3-bis[2-methoxy-4-nitro-5-sulfophenyl]-5- -[(phenylamino)carbonyl]-2H-tetrazolium hydroxide} cytoprotection assay, as described by Rice (1993) Proc. Natl. Acad. Sci. USA 90: 9721-9724, and Rice (1997) Antimicrob. Agents & Chemother. […] Briefly, cells are infected with HIV-1RF (or other virus to be tested) in the presence of various dilutions of test compounds and controls. The cultures are incubated for seven days. […] The cell death is measured by XTT dye reduction. XTT is a soluble tetrazolium dye that measures mitochondrial energy output, similar to MTT. […] Individual assays are done in duplicate using a sister plate method. […] Compound numbers therein refer to the numbers used in FIG. 1.

[2] = tested on: HIV-2 (Rod); experiment: XTT cytoprotection assay, HIV-2 (Rod/CEM-SS)
Text: as §1

[3] = tested on: SIV (Mac 251); experiment: XTT cytoprotection assay, SIV (Mac 251)
Text: as §1

## Cc1cn([C@H]2C[C@H](N=[N+]=[N-])[C@@H](CO)O2)c(=O)[nH]c1=O [AZT, 3′-azido-2′, 3′-dideoxythymidine, reference compound]
[1]
  Therapeutic Index: >400
[2]
  Therapeutic Index: >61
[3]
  Therapeutic Index: >40
